{
  "source": "patent US12349708B2",
  "about": "“Use and methods of 1,3-propanediol to improve taste and/or off-taste qualities” (Primient Covation LLC, priority 2019, dated 2025)",
  "tested_on": "experienced and trained panelist",
  "assay": "Sensorial description of energy drinks and additive solutions with propylene glycol or biologically-produced 1,3-propanediol (multi-sip-and-swallow taste method);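 further: propylene glycol or 1,3-propanediol added at 0.01, 0.1 or 1.0%, tasted by multi-sip-and-swallow in duplicate, compared with matching controls lacking either additive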",
  "conditions": "RT",
  "key": {"[1]": {"conditions": "0.01% PG or PDO in 2,000 ppm sucralose and 3,338 ppm caffeine in distilled water"}, "[2]": {"conditions": "0.01% PG or PDO in 10,500 ppm malic acid and 3,338 ppm caffeine in distilled water"}, "[3]": {"conditions": "0.1% PG or PDO in 2,000 ppm sucralose and 3,338 ppm caffeine in distilled water"}, "[4]": {"conditions": "0.1% PG or PDO in 10,500 ppm malic acid and 3,338 ppm caffeine in distilled water"}, "[5]": {"conditions": "1.0% PG or PDO in 2,000 ppm sucralose and 3,338 ppm caffeine in distilled water"}, "[6]": {"conditions": "1.0% PG or PDO in 10,500 ppm malic acid and 3,338 ppm caffeine in distilled water"}},
  "data": [
    {"smiles": "OCCCO", "note": "[PDO, 1,3-propanediol]", "values": [
      {"measurement": "Sensorial Description", "setting": "[1]", "value": "Significantly less off-taste, slightly less or less"},
      {"measurement": "Sensorial Description", "setting": "[2]", "value": "(Very small sip): similar to Control #135."},
      {"measurement": "Sensorial Description", "setting": "0.01% PG or PDO in 10,500 ppm malic acid and 3,338 ppm caffeine in distilled water, listed as biologically-produced 1,3-propanediol", "value": "no differences"},
      {"measurement": "Sensorial Description", "setting": "[3]", "value": "More off-taste note than PDO 0.01%. But less"},
      {"measurement": "Sensorial Description", "setting": "[4]", "value": "(Very small sip): Less bitterness. (Confirmed in"},
      {"measurement": "Sensorial Description", "setting": "0.1% PG or PDO in 10,500 ppm malic acid and 3,338 ppm caffeine in distilled water, listed as biologically-produced 1,3-propanediol", "value": "less overall bitterness than the propylene glycol-containing sample"},
      {"measurement": "Sensorial Description", "setting": "[5]", "value": "Smoky flavor across the taste, more off-flavor"},
      {"measurement": "Sensorial Description", "setting": "[6]", "value": "(Very small sip): weak off-flavor, similar quality to"}
    ]},
    {"smiles": "CC(O)CO", "note": "(centres unmarked) [PG, propylene glycol, reference compound]", "values": [
      {"measurement": "Sensorial Description", "setting": "[1]", "value": "Slightly different taste quality, hard to describe"},
      {"measurement": "Sensorial Description", "setting": "[2]", "value": "(Very small sip): similar to Control #135."},
      {"measurement": "Sensorial Description", "setting": "[3]", "value": "Significantly less off-taste note than Control #142,"},
      {"measurement": "Sensorial Description", "setting": "[4]", "value": "(Very small sip): similar to Control #135."},
      {"measurement": "Sensorial Description", "setting": "[5]", "value": "Appeared to have slightly more off-taste but"},
      {"measurement": "Sensorial Description", "setting": "[6]", "value": "(Very small sip): similar to Control #135, slight PG"}
    ]}
  ]
}
